Values quoted from earlier work in US20160367500A1 (FERTILIFY INC., priority 2013, published 2016).

Settings: Health Canada suggested daily intake levels for females aged 19-50

In the case of vitamin E, the “Tolerable upper intake level” value is listed as 1,000 mg.
